Earlier results, collected in patent EP0533724B1, “CALCIUM CITRATE MALATE COMPOSITION” (THE PROCTER & GAMBLE COMPANY, priority 1990, dated 1991).
Like-named read-outs stand apart in the source and are kept apart here.

Conditions: water, 25°C, cited from earlier work
[1] = reference (1) "Solubilities", 4th Edition, W. F. Linke

Substance: Calcium Malate· 3 H₂O
- g Salt/100 ml H₂O [1]: 0.31 g Salt/100 ml H₂O
- g Salt/100 ml H₂O (reference (2) CRC Handbook of Chemistry and Physics, 67th Edition): 0.4 g Salt/100 ml H₂O

Substance: Calcium Oxide
- g Salt/100 ml H₂O [1]: 0.1 g Salt/100 ml H₂O
